# Ab-14 light chain CDR variants: yeast mating affinities

Values reported by Li et al. 2023, doi:10.1038/s41467-023-39022-2 (FLAb copy).

Antigen: PDVDLGDISGINAS, a 14-residue peptide of the SARS-CoV-2 spike HR2 region.

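The starting antibody came from a phage panning campaign against this peptide. This is the validation round: designs drawn from the data on random variants, tested in the same kind of assay. Group labels follow the data file (Ctrl: baseline library sampled from a position-specific scoring matrix, with some repeated check sequences; En: ensemble of fine-tuned language models; GP: Gaussian process model; HC: hill climbing; Gen: genetic algorithm; Gibbs: Gibbs sampling; a sequence that several methods proposed may carry one label only). The assay is AlphaSeq: two haploid yeast populations carry antibody and antigen on their surface. Pairs that bind mate more often; barcode pairs of the diploids are counted by sequencing. The ratio of observed to expected reads was calibrated, replicate by replicate, on BCL2-family standards whose Kd was known from biolayer interferometry. There are six technical replicates.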

Ab-14 is the parent antibody, in scFv form: VH, then a (GGGGS)3 linker, then VL. The heavy chain is unchanged in all variants.
VH: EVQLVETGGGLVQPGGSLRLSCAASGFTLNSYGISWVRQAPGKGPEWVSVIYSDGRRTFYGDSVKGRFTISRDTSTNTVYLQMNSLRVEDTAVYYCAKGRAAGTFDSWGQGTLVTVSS
VL: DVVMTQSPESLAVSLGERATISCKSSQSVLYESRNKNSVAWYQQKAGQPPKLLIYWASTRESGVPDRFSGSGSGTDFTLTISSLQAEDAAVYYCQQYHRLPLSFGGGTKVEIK

The parent's light chain CDRs are KSSQSVLYESRNKNSVA, WASTRES, QQYHRLPLS; each variant's own CDRs replace them letter for letter.
Variants here have more than six changes.
The Kd shown is the geometric mean over detected replicates; a lower Kd is a better binder.
A pair that was not seen in any replicate is written "nd"; this usually means weak binding, but a binder can also be missed.
Entries are sorted by rising average, undetected variants last.

* KFEMSQLYESRNMNSVA / NASEREQ / QQYHRLPLS [GP_Gibbs] -> 570 pM (6 of 6 replicates; controls 0 of 18)
* MISDLTMYGSRNKNSVA / DLSTRGQ / QQYHRLPLS [En_HC] -> 590 pM (6 of 6 replicates; controls 0 of 18)
* TISQSVLMTGLNRNSVA / QASERIE / QQYERLPLS [En_HC] -> 1.0 nM (6 of 6 replicates; controls 0 of 18)
* KIGATLNTLSHKQNNVA / DLVTREN / QQYHRLPLS [En_Gen] -> 1.1 nM (6 of 6 replicates; controls 0 of 18)
* MLTRFNLQNQGISNNIA / DTNQVQE / QQYFRLPFA [En_Gibbs] -> 1.3 nM (6 of 6 replicates; controls 1 of 18)
* KSSISVEYQERLSNSVA / QASQRES / QQYHRLPLS [GP_Gibbs] -> 1.4 nM (6 of 6 replicates; controls 0 of 18)
* KLSMSVWYEARMCNSVA / EASTRES / QQYHRLPLS [GP_Gibbs] -> 1.5 nM (6 of 6 replicates; controls 0 of 18)
* KFSQMANYESTHVNAVA / QMSTREE / QQYHRLPLS [En_HC] -> 1.5 nM (6 of 6 replicates; controls 3 of 18)
* HVAGMMGQMGTQHQNIA / DMAIKCD / QQYQRLPLH [En_Gibbs] -> 1.5 nM (6 of 6 replicates; controls 2 of 18)
* KVSQSAWMEERNFNSVA / NASTREE / QQYHRLPLS [GP_Gibbs] -> 1.6 nM (6 of 6 replicates; controls 1 of 18)
* IISQWKLGEWRNKNSVA / DASQRES / QQYHRLPLS [GP_Gibbs] -> 1.7 nM (6 of 6 replicates; controls 0 of 18)
* IISQSFLGENHNKNSVA / QTSERGS / QQYDRLPLS [En_HC] -> 1.8 nM (6 of 6 replicates; controls 2 of 18)
* KLLQSVQYGSRALNSVA / QMETRED / QQYNRLPLS [En_HC] -> 1.8 nM (6 of 6 replicates; controls 0 of 18)
* NIYQAMHTLSQTKDNVA / DVEERGS / QQYFRLPLS [En_Gen] -> 1.9 nM (6 of 6 replicates; controls 0 of 18)
* HLYEAMQTGKLRTSAIA / DVNQQMR / QQYNRLPLM [En_Gibbs] -> 2.1 nM (6 of 6 replicates; controls 0 of 18)
* KFSQMSNQFSVSMNAVA / EMTTREE / QQYNRLPLA [En_Gen] -> 2.1 nM (6 of 6 replicates; controls 0 of 18)
* KFEMLWDYEDRNLNSVA / NASTRES / QQYHRLPLS [GP_Gibbs] -> 2.3 nM (6 of 6 replicates; controls 1 of 18)
* NISESMYVQSINKNNIA / EMSTRER / QHYHRLPLS [En_HC] -> 2.8 nM (6 of 6 replicates; controls 3 of 18)
* NVAGMMDNHNNQNQHIA / DMEIKCD / QQYQRLPLH [En_Gibbs] -> 2.8 nM (6 of 6 replicates; controls 1 of 18)
* KYQQSEPYESRNKNSVA / NASTRET / QQYHQLPLS [GP_Gibbs] -> 2.9 nM (6 of 6 replicates; controls 1 of 18)
* KIGATLNQLMKKKNNVA / DLVEREN / QQYFRLPLS [En_Gen] -> 3.1 nM (6 of 6 replicates; controls 1 of 18)
* KLEQSTWYESRMCNSVA / NASVRES / QQYHRLPLS [GP_Gibbs] -> 3.6 nM (6 of 6 replicates; controls 4 of 18)
* HISYSMAHLSRNKNSVA / NQQTRES / QQYERLPLS [En_HC] -> 3.8 nM (6 of 6 replicates; controls 1 of 18)
* KLPQATMQESVSKNSVA / ELTTRGS / QQYHRLPLS [En_HC] -> 4.9 nM (6 of 6 replicates; controls 0 of 18)
* MISNVMNTLTRIGNNVA / DLTEREK / QQYFRLPLS [En_Gen] -> 5.5 nM (6 of 6 replicates; controls 1 of 18)
* TLYGLTNSMLKNKDNVA / EMSTREA / QQYDRLPLM [En_Gen] -> 6.2 nM (5 of 6 replicates; controls 0 of 18)
* IFSQGVMVGWLTRNSVA / NSETREK / QQYDRLPLS [En_HC] -> 6.3 nM (6 of 6 replicates; controls 0 of 18)
* KLQQSVLMGSRNKNSVA / QASTRMV / QAYHRLPLS [GP_Gibbs] -> 6.3 nM (6 of 6 replicates; controls 1 of 18)
* TMNHELIQDDPMYNNVA / DGSLKTA / QQYYRLPLS [En_Gibbs] -> 6.5 nM (6 of 6 replicates; controls 1 of 18)
* TISGLANYESTNTNSVA / ELTMRGQ / QQYERLPLS [En_HC] -> 7.3 nM (1 of 6 replicates; controls 0 of 18)
* KVSWSDELQSRNKGQVA / SASTRES / QQYHRLPLS [GP_Gibbs] -> 8.7 nM (5 of 6 replicates; controls 0 of 18)
* MIGDMGLHDSRIQNSVA / NNSTREA / QQYDRLPLS [En_HC] -> 9.8 nM (6 of 6 replicates; controls 1 of 18)
* HITMGMYVAGRHSHSIA / QAETREK / QQYDRLPLA [En_Gen] -> 11 nM (6 of 6 replicates; controls 1 of 18)
* QLSMLTGHVSMSKNNVA / EMETREN / QQYDRLPLS [En_Gen] -> 12 nM (6 of 6 replicates; controls 0 of 18)
* TISQLMNMGSFAINSVA / QASIRNS / QQYDRLPLM [En_Gen] -> 12 nM (6 of 6 replicates; controls 0 of 18)
* TIGGTLMYGVRNRSNVA / EVSQRLN / QQYDRLPLV [En_Gen] -> 12 nM (6 of 6 replicates; controls 2 of 18)
* TIGQMFNGESRIRNSVA / QASTRES / QSYDRLPLS [En_HC] -> 14 nM (6 of 6 replicates; controls 2 of 18)
* KLNDGFQQYEQNNSSVA / DAINSEQ / QQYARLPLL [En_Gibbs] -> 15 nM (6 of 6 replicates; controls 0 of 18)
* MLSDLVKMGSRNTDSVA / DNSTRGS / QQYDRLPLS [En_HC] -> 17 nM (6 of 6 replicates; controls 3 of 18)
* MLGDVAFGLQRKHNSVA / DNSTRES / QQYDRLPLS [En_Gen] -> 33 nM (6 of 6 replicates; controls 0 of 18)
* MISQLYNMGQFAINSVA / QASLRNE / QQYDRLPLM [En_Gen] -> 36 nM (5 of 6 replicates; controls 1 of 18)
* VMFMGLYWGNIEHQAIA / NGTMREK / QQYHRLPLQ [En_Gibbs] -> 42 nM (6 of 6 replicates; controls 0 of 18)
* MFSYNLHDMGANKNSVA / EMNKVTT / QDYHRLPLA [En_Gibbs] -> 60 nM (4 of 6 replicates; controls 0 of 18)
* NLAMAYEQGILIKNNIA / SDNLREN / QQYEKLPLI [En_Gibbs] -> 73 nM (1 of 6 replicates; controls 0 of 18)
* SMIPFDNQIMKGTNNIA / HVSVRAS / QQYARLPLV [En_Gibbs] -> 74 nM (6 of 6 replicates; controls 0 of 18)
* MISQLMNMGQFAINSVA / QAEERYN / QQYDRLPLM [En_Gen] -> 280 nM (3 of 6 replicates; controls 0 of 18)
* MLSDVARGLTRKEDSVA / DNSTRED / QQYDRLPLS [En_Gen] -> 1.3 µM (2 of 6 replicates; controls 0 of 18)
* RLNVFQNAITQQNNNIA / QAEQKVH / QQYMRLPLY [En_Gibbs] -> nd (0 of 6 replicates; controls 0 of 18)
* KSSQNVEGMSPNKNSVA / WASTRES / QQGHCFPLS [Ctrl] -> nd (0 of 6 replicates; controls 0 of 18)
* MISESVMYEQRNRNSVA / DNSTRED / QCYDRLPLS [En_HC] -> nd (0 of 6 replicates; controls 0 of 18)
* KLSMSYRWESENKNSIA / ELVTRMS / QQYHRLPLS [En_HC] -> nd (0 of 6 replicates; controls 0 of 18)

Extract of 7 entries:

CDR-L1,CDR-L2,CDR-L3,group,Kd (apparent),detected,signal with controls
KVSQSAWMEERNFNSVA,NASTREE,QQYHRLPLS,GP_Gibbs,1.6 nM,6/6,1/18
MISESVMYEQRNRNSVA,DNSTRED,QCYDRLPLS,En_HC,nd,0/6,0/18
KLSMSYRWESENKNSIA,ELVTRMS,QQYHRLPLS,En_HC,nd,0/6,0/18
KLNDGFQQYEQNNSSVA,DAINSEQ,QQYARLPLL,En_Gibbs,15 nM,6/6,0/18
MLSDVARGLTRKEDSVA,DNSTRED,QQYDRLPLS,En_Gen,1.3 µM,2/6,0/18
HVAGMMGQMGTQHQNIA,DMAIKCD,QQYQRLPLH,En_Gibbs,1.5 nM,6/6,2/18
HITMGMYVAGRHSHSIA,QAETREK,QQYDRLPLA,En_Gen,11 nM,6/6,1/18

The authors' rule: three or more of the six replicates give a measured affinity, fewer mean a poor binder.
As a blank, each scFv also met three strains without target: over all light chain designs, 4% of these pairings were detected, typically at 430 nM and seldom below 38 nM. Also given: how often the same scFv was detected with the empty control strains.
The range of this assay differs from that of the first round, and the authors advise against merging the two.